Source: patent US4767761A, “Ornithine derivatives and their use as methotrexate-resistant cell inhibitors” (priority 1987, dated 1988)

Legend:
[1] = system: L 1210 murine leukemia cells; assay: Cytotoxicity assay against L 1210 murine leukemia cells, 48 hours; type: cell-based; conditions: Mus musculus, L1210, RPMI 1640, 10% fetal bovine serum, read-out: L1210 cell growth inhibition IC50
[2] = system: L 1210/R81 murine leukemia cells; assay: Cytotoxicity assay against L 1210/R81 murine leukemia cells, 48 hours; type: cell-based; conditions: Mus musculus, L1210 ( R81), read-out: L1210/R81 cell growth inhibition IC50
Description: A cytotoxicity assay was carried out for the same group of compounds against L 1210 and L 1210/R81 murine leukemia cells cultured for 48 hours in RPMI 1640 medium containing 10% fetal bovine serum, using the procedure of Mosman, J. Immunol. Meth., Vol. 65, 55-63 (1983).

[3] = biological target: T1, DHFR (Dihydrofolate Reductase) from L 1210/R81 murine leukemia cells (Mus musculus, UniProt P00375); conditions: read-out: DHFR IC50, range of values; range of six separate experiments on different days (footnote a, Table 1)
T1 sequence (P00375 1-187): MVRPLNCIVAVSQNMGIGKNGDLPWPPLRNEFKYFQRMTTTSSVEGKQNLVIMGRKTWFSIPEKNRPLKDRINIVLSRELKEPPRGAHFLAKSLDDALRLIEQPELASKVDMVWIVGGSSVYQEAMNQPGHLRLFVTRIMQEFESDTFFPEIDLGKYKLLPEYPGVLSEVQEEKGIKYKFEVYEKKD

[4] = system: MTX-resistant SCC15/R1 and SCC25/R1 sublines; assay: Growth inhibition of MTX-resistant SCC15/R1 and SCC25/R1 sublines (joint statement); conditions: result in words

## Nc1nc(N)c2nc(CNc3ccc(C(=O)N[C@@H](CCCNC(=O)CCC(=O)O)C(=O)O)cc3)cnc2n1 [Compound 3]
[1]
  IC50: 37 nM
[2]; 48 hours, RPMI 1640, 10% fetal bovine serum
  IC50: 54 µM

## Nc1nc(N)c2nc(CNc3ccc(C(=O)N[C@@H](CCCNC(=O)c4ccccc4C(=O)O)C(=O)O)cc3)cnc2n1 [Compound 7, N^α -(4-Amino-4-deoxypteroyl)-N^67-hemi-phthaloyl-L-Ornithine]
[2]; 48 h
  IC50: 52 µM
[3]
  IC50: 0.11 to 1.4 nM
[4]
  potency against both resistant cells compared with MTX against the parental cells: exceeded that of MTX against the parental cells

Where two headings read alike, the source gives them in different places.
